Source: article PMC3124131, “Can [^125I]-Iodocyanopindolol Label β3-Adrenoceptors in Rat Urinary Bladder?” (Frontiers in Pharmacology, 2010)

Target: T1, [^125I]-ICYP binding sites in rat urinary bladder membranes (β3-adrenoceptors) (Rattus norvegicus, UniProt P26255)
T1 sequence (P26255 1-400): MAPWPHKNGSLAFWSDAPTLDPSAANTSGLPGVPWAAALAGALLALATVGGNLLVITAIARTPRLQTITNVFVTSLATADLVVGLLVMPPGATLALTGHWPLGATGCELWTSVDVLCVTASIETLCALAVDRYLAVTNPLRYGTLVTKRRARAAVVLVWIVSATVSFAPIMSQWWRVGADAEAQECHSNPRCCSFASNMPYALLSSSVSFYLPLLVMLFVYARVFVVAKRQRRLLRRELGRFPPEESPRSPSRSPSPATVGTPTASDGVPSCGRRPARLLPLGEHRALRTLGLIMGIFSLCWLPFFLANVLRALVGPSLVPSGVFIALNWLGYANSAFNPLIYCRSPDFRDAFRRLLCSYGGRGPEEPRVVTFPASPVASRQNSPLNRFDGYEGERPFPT
Experiment: [125I]-ICYP saturation radioligand binding in rat urinary bladder membranes
Design: Lung and bladder were rapidly removed, freed from surrounding connective tissues and rapidly frozen in liquid nitrogen; from tissue; host or cells: Wistar rat urinary bladder membranes
Settings: non-specific binding defined by 100 μM isoprenaline
Procedure: All experiments were performed under the German legislation for the care of experimental animals. Adult Wistar rats of either gender were obtained from the breeding facility at the University of Essen Medical School. They were killed by decapitation under light ether anesthesia. Lung and bladder were rapidly removed, freed from surrounding connective tissues and rapidly frozen in liquid nitrogen. Thereafter, they were stored until use for up to 3 months at −70°C. On the day of the experiment, the tissues were thawed in ice-cold preparation buffer (50 mM Tris, 10 mM MgCl2, 0.5 mM EDTA, pH 7.5), minced with scissors and homogenized with an Ultra-Turrax (Janke & Kunkel, Staufen, Germany) for 10 s at full speed and then twice for 20 s each at 2/3 speed. The homogenates were filtered through medical gauze and then centrifuged for 20 min at 50,000 g at 4°C. […]
Radioligand binding assays were performed as previously described (Goepel et al., [1997]) with minor modifications. […] In saturation experiments 6–12 [^125I]-ICYP concentrations were used, whereas in competition experiments 21 narrowly spaced competitor concentrations were used; in every case each data point was assessed in duplicate.
Saturation binding data were analyzed by fitting rectangular hyperbolic functions to the experimental data. […]

- Kd ([125I]-ICYP up to 1200 pM, absence of propranolol, n = 6): 0.579 ± 0.147 nM
- Kd (additional presence of 1 μM propranolol): 0.562 ± 0.196 nM
SMILES: CC(C)(C)NCC(O)COc1cccc2[nH]c(C#N)c(I)c12 (centres unmarked) [[^125I]-ICYP, [^125I]-iodocyanopindolol]
